Experimental data from US4710578A, “Isothiuronium salts” (Peremartoni Vegyipari Vallalat, priority 1984, dated 1987).

Each compound was assayed on Lewis long tumor. Settings: mouse, in vivo.

| Compound | Effective dose in Lewis long tumor relative to LD50 |
| --- | --- |
| C=CCSC(=N)NC(=N)N [Example 11, N-Aminoiminomethyl-S-Allyl-Isothiuronium Bromide] | effective in a dose lower than one-tenth of the LD50 value |
| N=C(N)NC(=N)SCCCCl [Example 15, N-Aminoiminomethyl-S-(3-Chloropropyl)-Isothiuronium Bromide] | effective in a dose lower than one-tenth of the LD50 value |
| C=CCSC(=NC1CCCCC1)NC(=N)N [Example 22, N-Aminoiminomethyl-N'-Cyclohexyl-S-Allyl-Isothiuronium Chloride] | effective in a dose lower than one-tenth of the LD50 value |
| N=C(N)NC(=N)SCCCBr [Example 28, N-aminoiminomethyl-S-(3-bromo-propyl)-isothiuronium bromide] | effective in a dose lower than one-tenth of the LD50 value |
| C=CCN=C(NC(=N)N)SCC=C [Example 45, N-(Aminoiminomethyl)-N'-Allyl-S-Allyl-Isothiuronium Bromide] | effective in a dose lower than one-tenth of the LD50 value |
| N-Aminoiminomethyl-S-(1-Chloro-2-Hydroxy-Propyl)-Isothiuronium Bromide [Example 14] | effective in a dose lower than one-tenth of the LD50 value |
